{"source": "patent US5739334A", "about": "(Istituto Ricerca Francesco Angelini S.p.A., priority 1992, dated 1998)", "system": "serotonin reuptake", "assay": "Chemical bond studies: serotonin reuptake (% inhibition)", "assay_type": "binding"}
{"compound": "O=c1n(CCCN2CCN(c3cccc(Cl)c3)CC2)nc2ccccn12", "note": "[trazodone]", "values": [{"measurement": "% inhibition, serotonin reuptake", "setting": "C = 10^-5 M", "value": 96.0, "unit": "%"}, {"measurement": "% inhibition, serotonin reuptake", "setting": "C = 10^-7 M", "value": "less than 45.0%"}]}
